From ChEMBL document CHEMBL4814043, “Optimization of a urea-containing series of nicotinamide phosphoribosyltransferase (NAMPT) activators” (Bioorg Med Chem Lett, 2021)

Chains of the proteins cited; added tags and fusions are not shown. Lines headed by an entry give the natural chain unless they say otherwise; changes in a name come on top.
UniProt P43490: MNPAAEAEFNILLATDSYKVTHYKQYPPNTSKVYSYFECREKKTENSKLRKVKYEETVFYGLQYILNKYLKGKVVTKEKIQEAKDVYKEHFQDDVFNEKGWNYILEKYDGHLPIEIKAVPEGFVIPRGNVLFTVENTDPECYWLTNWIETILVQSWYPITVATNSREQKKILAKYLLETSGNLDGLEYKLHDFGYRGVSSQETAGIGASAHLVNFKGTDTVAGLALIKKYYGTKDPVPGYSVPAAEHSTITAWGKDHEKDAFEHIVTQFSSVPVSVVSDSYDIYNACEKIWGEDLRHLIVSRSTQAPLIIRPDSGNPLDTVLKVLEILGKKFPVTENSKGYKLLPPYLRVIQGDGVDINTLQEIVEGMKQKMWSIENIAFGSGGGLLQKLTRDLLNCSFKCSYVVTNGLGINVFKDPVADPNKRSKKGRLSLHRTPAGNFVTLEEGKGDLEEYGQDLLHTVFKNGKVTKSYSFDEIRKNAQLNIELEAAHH

Biological target: Nicotinamide phosphoribosyltransferase (Homo sapiens, UniProt P43490)
Experiment: Activation of human NAMPT

EC50: 3.25 µM
SMILES: CCOC(=O)c1ccc(NC(=O)NCc2ccncc2)cc1
